Data from US20120213826A1, “Use of Pro-Inflammatory Compounds for Promoting Bone Formation” (Imperial Innovations Limited, priority 2009, published 2012).

Experiments:
[1] = tested on: muscle-derived stromal cells (MDSC); assay: ALP quantification assay, osteogenic differentiation of cultured MDSC; type: cell-based, human
From the text: FIG. 26 TNF-α and IL-6 promote osteogenic differentiation of MDSC A-D: ALP quantification assays after culture of 1×10^4 MDSC for 7 days in a 96-well plate in triplicate with: A: fracture supernatant, ±antibody neutralization of BMPs 2/4 7 and to TGF-β. The immunoglobulin isotype controls used included IgG^1 for AbBMP-2/4 and AbTGF-β, and IgG^2B for Ab-BMP-7. B: human serum containing culture medium with the addition of recombinant human BMPs and TGF-β. C: fracture supernatant±antibody neutralization of TNF-α, IL-6 and IL-1β. The IgG^1 immunoglobulin was used as the antibody isotype control. D: human serum-containing culture medium with the addition of recombinant human TNF-α, IL-6 and IL-1β. […]
To investigate the fracture-derived stimulus for osteogenic differentiation of MDSC, fracture supernatants were prepared using human tibial fracture fragments obtained within 24 hours of injury (ethics approval number—COREC No: 07/Q0411/30). Supernatants harvested from non-fractured tibiae in patients requiring amputation as a result of severe foot trauma cut atraumatically with a fine surgical saw were used as “non-fracture controls.” Using RT-PCR and ALP quantification, we estaBIished that only fracture supernatant but not supernatants from surgically cut bone stimulated osteogenic differentiation of MDSC in vitro. […]

[2] = tested on: muscle-derived stromal cells (MDSC); assay: MDSC proliferation (CellTiter-Glo luminescent cell viability assay); type: cell-based; conditions: Example 3; recombinant human BMPs, data not shown
Procedure: CellTiter-Glo® luminescent cell viability assay for MDSC in culture with A: TNF-α, B: IL-6 and C: IL-1β. 2.5×10^3 cells were cultured in triplicate for 1, 3 and 5 days in human serum-containing media ± recombinant human cytokine at the concentration indicated. The number of viaBIe cells in culture was determined using the assay, where luminescent signal is directly proportional to the concentration of ATP from viaBIe cells.
It was hypothesized that as proliferation of MDSC cultured in supernatant was not fracture-dependent (see FIG. 25C), cytokines were not responsiBIe for the pattern of cellular proliferation seen. In order to test this hypothesis, proliferation of MDSC in human serum-containing media with rhTNF-α, rhIL-6 and rhIL-1β was tested using the CellTiter-Glo® luminescent cell viability assay was used (Promega Corp., Madison, Wis.).
This method assays the number of viaBIe cells in culture, by measuring adenosine triphosphate (ATP), where the luminescent signal is directly proportional to the number of ATP present. […] Proliferation was not dose-dependently-linked to the presence of pro-inflammatory cytokines TNF-α, IL-1β or IL-6 (FIG. 28).

B1: BMP2: recombinant human bone morphogenetic protein 2 (protein, UniProt P12643 283-396, looked up)
Bone morphogenetic protein 2: QAKHKQRKRLKSSCKRHPLYVDFSDVGWNDWIVAPPGYHAFYCHGECPFPLADHLNSTNHAIVQTLVNSVNSKIPKACCVPTELSAISMLYLDENEKVVLKNYQDMVVEGCGCR
ALP expression (osteogenic differentiation) in cultured MDSC ([1]; Example 1, exogenous recombinant human factor added to MDSC culture (FIG. 8, 10, 12)): promotes osteogenic differentiation | ALP expression by MDSC ([1]; Example 3, 7 days in human serum-containing media with recombinant human factor (FIG. 26B, 26D)): did not induce ALP expression | cell proliferation in excess of the media-only control [2]: did not induce cell proliferation
